A549 tox: A549 cytotoxicity, counter-screen for Nrf2 inhibitors; A549 ARE-Fluc cells, CellTiter-Fluor viability, 18-24 h; Potency, µM (top dose mostly 46 µM), actives largely listed as inhibitors; actives 0.16% (n = 390,000); AID 504648
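A549 ARE_Fluc cells in 5% FBS OPTI-MEM were exposed to compounds in concentration-response for 18-24 h at 37 deg C. Viability was read by CellTiter-Fluor fluorescence (Ex 405/Em 525) after 30 min, before the luciferase read.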
Nrf2 activator: activates Nrf2 signaling; AREc32 ARE-luciferase reporter (MCF7-derived line), luminescence, 24 h; Potency, µM (highest dose often 46.1 µM), most hits filed as activators; actives 0.31% (n = 410,000); further: nearly all actives have a fitted effect of over 65% in size
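AREc32 cells carrying an ARE-driven firefly luciferase, 1000 cells/well in OPTI-MEM with 5% FBS, dosed after overnight attachment and incubated 24 hr at 37 deg C. Steady-Glo luminescence read after 30 min at RT.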
Nrf2 block: blocks Nrf2 signaling | A549 ARE-Fluc reporter, luciferase luminescence, 18-24 h | Potency, µM (titrated, usually from 46 µM), most hits filed as inhibitors | actives 2.1% (n = 360,000) | AID 504444; further: nearly all actives have a fitted effect of over 60% in size
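A549 ARE_Fluc cells (5000/well, 5% FBS OPTI-MEM) pre-incubated 2 h, then treated with compounds 18-24 h at 37C/5% CO2 in concentration-response. CellTiter-Fluor viability read first; BugLite luciferase luminescence after 15 min at room temperature gives Nrf2 activity.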
ClpP mod: qHTS Assay for Activators of ClpP; ATP-dependent Clp protease proteolytic subunit (Bacillus subtilis (strain 168)), P80244; purified B. subtilis ClpP, FRET peptide cleavage, 20 min; Potency, µM (highest dose often 57.5 µM); actives 1.9% (n = 340,000); AID 651965, 2013; active means well fitted falling curve with a large enough effect; inconclusive means small, poorly fitted or top-dose-only effect; inactive means no such curve, though single readings can be large or run the other way; further: the source files actives as falling curves though it sought activators and does not explain the sign; nearly all actives have a fitted effect of over 65% in size
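Purified B. subtilis ClpP, 10 microg/mL final in Tris/HCl pH8 with KCl, BSA, glycerol and Tween-20, cleaved an Abz/nitrotyrosine-quenched decapeptide. Fluorescence (ex 320, em 430) was read at 0 and 20 min at room temperature. Delta was normalized to 5.8 microM ADEP and DMSO/no-enzyme controls.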
IL-2 act: activates IL-2 in a cell-based reporter assay; IL-2 activation reporter assay, cell-based qHTS; stimulated with anti-CD3/CD4/CD28 beads; in transgenic mouse T cells; activation, % (series mostly up to about 46 µM); actives 0.065% (n = 360,000); in the data active means activation above about 50%; inconclusive means mostly about 30% to 49%
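Using fluorescent plate cytometry, EGFP and DsRed are detected in transgenic mouse T cells stimulated 18 h at 37 degrees C with antibody-coated beads after 60 min compound pretreatment.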
miR-21 FLuc: miR-21 reporter, rising signal | 340,000 tested, under 10 active | AID 2288 | HeLa miR-21 FLuc reporter, luciferase, 48 h | Potency, µM (titrated, usually from 38.3 µM); active = well fitted rising curve with a large enough effect; inconclusive = small, poorly fitted or top-dose-only effect; inactive = no such curve, though single readings can be large or run the other way;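 further: miR-21 action dims this reporter so a rising signal means less miR-21 action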
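Luminescence from a firefly luciferase reporter carrying a miR-21 binding site downstream, stably expressed under a CMV promoter in HeLa cells that make miR-21 endogenously, reports miRNA modulation after 48 h compound exposure up to approximately 40uM final.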
Numbers stand for hits; n = inactive; u = inconclusive; x = no result; [ ] = remark or other dose. The list is not random: actives were taken first. Their share in the collection is about 3.7%. Unless noted, the call rests on the fitted dose curve; in most records, active means well fitted curve in the direction sought with a large enough effect; inconclusive means small, poorly fitted or top-dose-only effect, or another doubt; inactive means no such curve, though single readings can be large; an effect the other way counts as inactive or inconclusive.

Chains of the proteins cited; added tags and fusions are not shown.
ATP-dependent Clp protease proteolytic subunit (Bacillus subtilis (strain 168)), P80244, UniProt P80244, whole entry, looked up: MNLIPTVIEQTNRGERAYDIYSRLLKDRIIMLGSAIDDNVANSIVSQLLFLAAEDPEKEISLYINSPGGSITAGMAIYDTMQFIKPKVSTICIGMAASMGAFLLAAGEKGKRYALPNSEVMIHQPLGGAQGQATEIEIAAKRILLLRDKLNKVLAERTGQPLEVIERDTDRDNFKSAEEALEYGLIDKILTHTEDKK

SMILES	A549 tox	Nrf2 activator	Nrf2 block	ClpP mod	IL-2 act	miR-21 FLuc
COc1ccc(/C=C/C(=O)Nc2ccc(-n3nncc3-c3ccc(OC)c(OC)c3)cc2)cc1OC	n	n	u	25µM	n	n
COc1ccc(-c2cnnn2-c2ccc(NC(=O)/C=C/c3ccc(OC)c(OC)c3)cc2)cc1	n	n	u	u	n	n
O=C(COc1ccc(-c2ccccc2)cc1)NNC(=O)Nc1ccc(F)cc1F	n	n	n	32µM	n	n
Cc1ccc(-n2c(-c3ccccc3)c[n+]3c2CCc2ccccc2-3)c(C)c1	u	n	4.1µM	x	n	u
Cc1ccc(-n2c(SCC(=O)N3CCCc4ccccc43)nnc2-c2cccnc2)c(C)c1	n	n	n	x	n	n
Cc1cccc(C(=O)NCC(c2ccco2)S(=O)(=O)c2cccs2)c1 (centres undefined)	n	n	x	n	x	n
Cc1ccc(NC(=O)C(C)c2cccc(C(=O)c3ccccc3)c2)cc1O (centres undefined)	n	n	n	20µM	n	n
Cc1ccc(C)c(Nc2nn3c(=O)c4ccc(C(=O)N(C)Cc5ccccc5)cc4nc3s2)c1	n	n	u	u	x	n
CCC(=O)Nc1ccc(C(=O)Cn2ncc(Cl)c(Cl)c2=O)cc1	n	6.3µM	n	n	n	u
CCOC(=O)c1ccc(NC(=O)Cn2ncc(Cl)c(Cl)c2=O)cc1	n	u	u	x	n	u
COc1ccccc1-c1cc(C(F)(F)F)nc(S(=O)(=O)CCCC(=O)Nc2ccccc2F)n1	n	n	n[9.27 µM]	n	x	u
COc1ccccc1-c1cc(C(F)(F)F)nc(S(=O)(=O)CCCC(=O)Nc2cccnc2Cl)n1	u	n	21µM	x	n	u
CC(=O)N1CCc2cc(S(=O)(=O)NC3CCCc4ccccc43)ccc21 (centres undefined)	n	n	6.3µM	n	n	n
CC(=O)N1CCCc2cc(S(=O)(=O)NC(C(=O)NC3CCCCC3)C(C)C)ccc21 (centres undefined)	n	n	n	16µM	n	n
CCC(=O)N1CCc2cc(S(=O)(=O)NCCC(=O)N3CCN(c4cccc(C)c4)C(C)C3)ccc21 (centres undefined)	n	n	18µM	n	n	n
Cc1ccc(NC(=O)c2cc(S(=O)(=O)NCCC3=CCCCC3)ccc2F)cc1F	u	n	10µM	n	n	n
Cc1cccc(C(=O)N2CCc3cc(CNC(=O)c4ccnn4C)ccc32)c1	n	n	x	n	x	u
CN(C)c1ccc(C(CNC(=O)c2c(F)cccc2Cl)N2CCOCC2)cc1 (centres undefined)	n	n	x	n	x	n
CC(=O)N1CCc2cc(S(=O)(=O)CCC(=O)N3CCc4ccccc4C3)ccc21	n	n	u	n	n	n
Cc1cc(S(=O)(=O)NCCC2=CCCCC2)ccc1Br	n	n	u	n	n	x
CC(=O)N1CCc2cc(S(=O)(=O)NCCC3=CCCCC3)ccc21	n	n	3.7µM	n	n	x
Cc1ccc(S(=O)(=O)NCCC2=CCCCC2)cc1C(N)=O	n	n	10µM	n	n	n
CC(=O)N1CCc2cc(S(=O)(=O)NCCC(=O)N3CCc4ccccc4C3)ccc21	n	n	13µM	n	n	n
O=S(=O)(NCCc1csc2nc(-c3ccccc3)nn12)c1cccs1	n	n	x	n	x	n
Cc1ccn2c(=O)cc(COc3ccc(NC(=O)C(C)(C)C)cc3)nc2c1	n	n	x	n	x	n
SMILES	A549 tox	Nrf2 activator	Nrf2 block	ClpP mod	IL-2 act	miR-21 FLuc
O=C(Nc1cc2c(cc1Br)OCCO2)c1cccs1	n	13µM	u	n	n	n
O=C(CSc1nnnn1-c1ccc2c(c1)OCCO2)Nc1nc2c(s1)CCCC2	u	n	13µM	n	n	n
c1nc(NCCCN2CCCCC2)c2cc(-c3ccc4c(c3)OCO4)ccc2n1	n	x	n	x	x	x
COC(=O)[C@@]12OC[C@]34[C@H]([C@@H](O)[C@@H]1O)[C@@]1(C)C(=O)C(O[C@@H]5OC(CO)[C@@H](O)[C@@H](O)[C@@H]5O)=C[C@@H](C)[C@@H]1C[C@H]3OC(=O)[C@H](OC(=O)/C=C(\C)C(C)(C)OC(C)=O)[C@@H]24 (some centres undefined)	u	n	2.9µM	u	n	x
CCC(C)C(=O)Nc1nc(C)c(-c2csc(Nc3ccc(Cl)cc3)n2)s1 (centres undefined)	u	n	16µM	n	n	n
Cc1ccc(Cl)cc1Nc1nc(-c2sc(NC(=O)C(C)(C)C)nc2C)cs1	n	n	12µM	n	n	n
CC(=O)Nc1ccc(Nc2nc(-c3sc(NC(C)=O)nc3C)cs2)cc1	n	n	n	x	n	n
CSc1nc2n(n1)C(c1cccs1)C1=C(CCCC1=O)N2 (centres undefined)	n	n	n	x	n	n
Cc1ccccc1CSc1nc2n(n1)C(c1cccs1)C1=C(CCCC1=O)N2 (centres undefined)	n	n	u	22µM	n	n
O=C1CCCC2=C1C(c1cccs1)n1nc(SCc3ccccc3F)nc1N2 (centres undefined)	n	n	18µM	u	n	n
CCOC(=O)c1ccc(NC(=S)N2CCSC2c2ccc(OC)cc2)cc1 (centres undefined)	n	n	n	n	n	n
CCOC(=O)c1ccc(NC(=S)N2CCSC2c2ccc(Cl)cc2)cc1 (centres undefined)	u	n	21µM	n	n	n
CCC(=O)OCC(=O)C1(OC(=O)CC)[C@H](C)C[C@H]2[C@H]3[C@H]([C@@H](O)C[C@@]21C)[C@@]1(C)C=CC(=O)C=C1C[C@H]3Cl (some centres undefined)	n	n	0.052µM	n	n	x
N#Cc1c(N)n(-c2ccc(O)cc2)c2nc3ccccc3nc12	n	n	n	x	n	n
COc1cc(Cn2c(N)c(C#N)c3nc4ccccc4nc32)cc(OC)c1	n	n	n	32µM	n	n
COc1cccc(Cn2c(N)c(C#N)c3nc4ccccc4nc32)c1OC	n	n	n	13µM	n	n
COc1ccc(Cn2c(N)c(C#N)c3nc4ccccc4nc32)cc1	n	n	n	u	n	n
O=C(c1cc2ccccc2[nH]1)c1cc2cc(O)ccc2[nH]1	x	x	x	n	x	x
CCc1ccc2c(c1)C(C)=CC(C)(C)N2	n	n	n	32µM	n	n
Cc1ccc2[nH]c(C)c(/C=C/c3cc[n+](C)cc3)c2c1	n	n	u	x	159	n
COc1ccc(-[n+]2c(C)cc(/C=C3\Sc4ccccc4N3C)cc2C)cc1	9.2µM	n	0.23µM	n	n	u
